# Measurements published in PubChem BioAssay AID1487 (National Center for Advancing Translational Sciences (NCATS), 2009).
# This is a selection; strong and weak results do not stand in their true shares. Inconclusive results are not listed. Calls of active or inactive are those of the source. Calls follow the shape of the dose curve; as a rule, active = well fitted inhibition curve with a large enough effect in the signal ratio, with a control signal flat (not every such curve was filed as active); inconclusive = small, poorly fitted or top-dose-only effect, or effect the other way, or a change in a side signal; inactive = flat fitted curve, though single readings scatter; the % refers to the signal ratio.
# Assay: qHTS Assay for Modulators of Lamin A Splicing
# Conditions: HeLa LMNA splicing GFP/RFP minigene ratio, 48 h; at 46.1 µM (top of the series) unless noted
# % is scaled to controls: 0 for no effect and ±100 for the full control effect.
row,SMILES,"ratio change, negative = inhibition"
1,COP1(=S)c2c(C)nn(CCC#N)c2N=C(c2ccc(F)cc2)N1C (stereo unspecified),inactive: 12.3%
2,O=C(COc1ccccc1)OC1CN2CCC1CC2 (stereo unspecified),inactive: 3.14%
3,Cc1cc(SC(NC(=O)c2ccccc2)C(Cl)(Cl)Cl)nc(C(C)C)n1 (stereo unspecified),inactive: -6.96%
4,Cc1cc(SC(NC=O)C(Cl)(Cl)Cl)ncn1 (stereo unspecified),inactive: -5.92% [at 46 µM]
5,Cc1ccc2nc3c(c(C)c2c1)CC(C(Cl)Cl)S3 (stereo unspecified),inactive: -13%
6,ClCCSc1nnc(-c2cccnc2)o1,inactive: -8.71%
7,O=[N+]([O-])c1cc([N+](=O)[O-])c(-c2ccn[nH]2)s1,inactive: 17.6%
8,CC(C)NC(=O)NP(=O)(Oc1ccccc1)Oc1ccccc1,inactive: 0.628% [at 46 µM]
9,CCN(CC)C(=S)SC(NC=O)C(Cl)(Cl)Cl (stereo unspecified),inactive: 9.18%
10,Cc1c2c(nc3ccccc13)SC(C(Cl)Cl)C2 (stereo unspecified),inactive: -17.3%
11,O=C(OC1CN2CCC1CC2)C12CC3CC(CC(C3)C1)C2 (stereo unspecified),inactive: 10.8%
12,COc1ccc2nc(NP(=O)(c3ccccc3)c3ccccc3)sc2c1,inactive: -23.7% [at 46 µM]
13,CN(C(=O)Cc1ccc(Cl)c(Cl)c1)[C@@H]1CC[C@]2(CCCO2)C[C@H]1N1CCCC1,inactive: -21.6%
14,Cc1cccc(OCC(=O)OC2CN3CCC2CC3)c1 (stereo unspecified),inactive: 0.439%
15,Cc1ccc(NCCc2c([N+](=O)[O-])cc([N+](=O)[O-])cc2[N+](=O)[O-])cc1,inactive: -12.4%
16,COc1cc(C2NCCC3(OCCO3)C2(C)C)cc(OC)c1OC (stereo unspecified),inactive: -6.21%
17,O=P(Nc1nccs1)(c1ccccc1)c1nc2ccccc2s1 (stereo unspecified),inactive: -8.06%
18,CCOP1(=S)c2c(C)nn(CCC#N)c2N=C(c2ccccc2F)N1C (stereo unspecified),inactive: 7%
19,CCOP1(=S)c2c(C)nn(CCC#N)c2N=C(c2ccc(F)cc2)N1C (stereo unspecified),inactive: 4.67%
20,CN(C(=O)Cc1ccccc1)[C@@H]1CC[C@]2(CCCO2)C[C@H]1N1CCCC1,inactive: 10.5%
21,O=[N+]([O-])c1ccc2c(c1)nnn2O,inactive: 8.49%

row,SMILES,"ratio change, negative = inhibition"
1,Cc1nn(-c2ccccc2)c2c1P(=O)(N1CCOCC1)N(C)C(c1ccccc1)=N2 (stereo unspecified),inactive: -1.37%
2,O=P1(Nc2ncccn2)COc2ccccc2OC1,inactive: 22.4%
3,Cc1ccc(OCC(=O)OC2CN3CCC2CC3)cc1 (stereo unspecified),inactive: -5.28%
4,O=P1(Nc2ccccn2)COc2ccccc2OC1,inactive: -7.36%
5,Clc1n[nH]nc1-c1nn[nH][15n]1,inactive: -0.0808%
6,CN(C(=O)Cc1ccc(Cl)c(Cl)c1)[C@@H]1CCCC[C@H]1N1CCCC1,inactive: -6.69% [at 46 µM]
7,O=[As](O)(c1ccccc1Br)c1ccccc1Br,inactive: 16.4% [at 46 µM]
8,O=P(Nc1nccs1)(c1ccccc1)c1ccccc1,inactive: -10%
9,CC(C)C(=O)NC(Sc1ccccc1)C(Cl)(Cl)Cl (stereo unspecified),inactive: 0.428%
10,c1nnnn1CCn1cnnn1,inactive: 9.06%
11,CC(=O)NC(SC(=S)N(C)C)C(Cl)(Cl)Cl (stereo unspecified),inactive: -7.64%
12,O=C(OC1CN2CCC1CC2)c1cccc(Cl)c1 (stereo unspecified),inactive: 3.9%
13,CCOC(=O)NC(Sc1ccccc1)C(Cl)(Cl)Cl (stereo unspecified),inactive: 9.3%
14,O=C(NC1CCS(=O)(=O)C1)NP(=S)(Oc1ccccc1)Oc1ccccc1 (stereo unspecified),inactive: -16.7% [at 46 µM]
15,CCC(=O)N1C2C3N(C(=O)CC)C1C1N(C(=O)CC)C(C(N1C(=O)CC)N3C(=O)CC)N2C(=O)CC,inactive: -0.22%
16,CC(=O)NC(SC(=S)N(CC(C)C)CC(C)C)C(Cl)(Cl)Cl (stereo unspecified),inactive: 12%
17,Cc1ccc(OP(=O)(Nc2ccccn2)Oc2ccc(C)cc2)cc1,inactive: -22.2% [at 46 µM]
18,COC(=O)c1cc2c(s1)N=C(c1ccccc1)N(C)P2(=O)N1CCOCC1 (stereo unspecified),inactive: 6.67%
19,O=P1(Nc2nc3ccc(Cl)cc3s2)COc2ccccc2O1 (stereo unspecified),inactive: 4.08%
20,CC(C)(C)C(=O)NC(Sc1ccccc1)C(Cl)(Cl)Cl (stereo unspecified),inactive: 20.7% [at 46 µM]
21,CC(=O)Nc1ccc([As](=O)(O)O)c(O)c1,inactive: 21.7% [at 46 µM]

row,SMILES,"ratio change, negative = inhibition"
1,Cc1ccc(N/C(=N/P(=O)(N2CCOCC2)N2CCOCC2)N2CCOCC2)cc1,inactive: 1.24% [at 46 µM]
2,CN1CCCC(OC(=O)C(c2ccccc2)c2ccccc2)C1 (stereo unspecified),inactive: -5.39%
3,O=C(NC(Sc1ccncn1)C(Cl)(Cl)Cl)c1ccccc1 (stereo unspecified),inactive: -8.01%
4,Oc1ccccc1CNc1ccccn1,inactive: 12.7%
5,CC(C)CC(=O)NC(Sc1ccc(Cl)cc1)C(Cl)(Cl)Cl (stereo unspecified),inactive: -4.03%
6,CC(=O)Nc1ccc([As](=O)(O)O)cc1,inactive: -0.73% [at 46 µM]
7,CN(C(=O)Cc1ccc(Cl)c(Cl)c1)[C@H]1CCCC[C@@H]1N1CCCC1,inactive: -10.9%
8,Cc1cc(SC(NC(=O)c2ccc(F)cc2)C(Cl)(Cl)Cl)ncn1 (stereo unspecified),inactive: -9.01%
9,CCOP(=O)(Nc1ccccc1)OCC,inactive: 12.1%
10,CCN(N=Nc1nonc1N)c1nonc1N,inactive: -13.9%
11,O=[N+]([O-])c1ncn(CCn2ncnc2[N+](=O)[O-])n1,inactive: 4.8% [at 9.22 µM]
12,COc1ccc(C2=NCC(CBr)S2)cc1 (stereo unspecified),inactive: -12.3% [at 46 µM]
13,Cc1ccc(NP(=O)(Oc2ccccc2)Oc2ccccc2)nc1,inactive: 9.35% [at 46 µM]
14,CC(=O)N1C2C3N(C(C)=O)C1C1N(C(C)=O)C(C(N1C(C)=O)N3C(C)=O)N2C(C)=O,inactive: 11.7%
15,O=[N+]([O-])c1cccc2n[nH]nc12,inactive: -0.835%
16,CCN(/C(=N/P(=O)(N1CCOCC1)N1CCOCC1)N1CCOCC1)c1ccc(OC)cc1,inactive: 3.82% [at 46 µM]
17,Nc1ccc([As](=O)(O)c2ccc(N)cc2)cc1,inactive: 0.194% [at 46 µM]
18,CC1CCN(C(=O)Oc2c(Cl)cc(Cl)c3cccnc23)CC1,inactive: -4.95%
19,CN(C)C(=O)OCCc1n(C)cc[n+]1C,inactive: -6.49%
